# According to patent publication US20240131499A1, “BIOMIMETIC CATALYSTS FOR DIVERSE INDUSTRIAL APPLICATIONS IN CHEMICAL REACTIONS” (Wisconsin Alumni Research Foundation, priority 2022, published 2024):
# Experiment: Reaction kinetics analysis for lactose hydrolysis
# Settings: 100° C.; homogeneous (non-immobilized) catalyst; amino acids 82-84 mM; 95% confidential intervals
# Description: The glass vial was capped to prevent the solvent from evaporation, and the hydrolysis reaction was carried out at 100° C. in an oil bath (120 and 90° C. were used to measure activation energies) with 600-800 rpm stirring. […] 0.105 g (=0.1 mL) of liquid sample solution was collected at each day (every 18-26 h) for 5 days and diluted in 0.399 g (=0.4 mL) of MQ water for the reaction kinetics analysis, and the diluted sample was filtered by syringe filter (20 μm pore) and analyzed by HPLC.
# The chemical concentrations of hydrolyzed lactose solutions were quantified by high performance liquid chromatography (HPLC) analysis. The hydrolyzed solutions with immobilized catalysts were centrifuged (2500 rpm, 20 min) to separate the immobilized catalyst in the aqueous phase solution. 0.105 g (0.1 mL) of the aqueous solution was diluted in 0.399 g (0.4 mL) of Milli-Q water (5 times dilution by volume) to analyze the concentrations of lactose, glucose, galactose, and HMF as one of by-products by glucose degradation. […] The temperature of the HPLC column was maintained at 50° C., and the flow rate of the mobile phase (pH 2 water, acidified by sulfuric acid) was 0.6 mL/min.
structure (smiles),measurement,value
CC(=O)O [acetic acid],"kd,app, apparent rate constant for glucose degradation",8.3e-08 ± 4.17e-07 s⁻¹
